Experiment: BUI#77: IN VIVO: IV BRAIN LEVELS @ 1 HOUR post 1 mL x 1 min IV
Description: Table printed on a drawing sheet, Fig. 1
Title: BUI#77: IN VIVO: IV BRAIN LEVELS @ 1 HOUR post 1 mL x 1 min IV
Footnotes: All tested at max solubility in 5% mennitol, pH4 (except PPI-558=DMPC) / Brain levels determined via LC/MS/MS (0.2 mL: PPI-657=IS, except PPI-558: 2mL SepPak) / * Computed values from do area < 100
The patent's description of the figure: FIG. 1 is a table depicting the results from a brain uptake assay.
First reader's note: Rows with only a Structure cell (l-v-f-f-a, TFA. l-v-f-f-l, TFA. l-f-f-v-l) are bold group headings for the rows below them; the asterisk printed in the gap before the UNIT DOSE block is kept in its own unheaded column.

Substance	MAX SOLUBILITY | Brain Levels (nM) + CsA | mean [nM]	MAX SOLUBILITY | Brain Levels (nM) | mean [nM]	UNIT DOSE (2mg/kg IV) | (+)CsA [nM]	UNIT DOSE (2mg/kg IV) | ALONE [nM]
4-hydroxybenzoyl-(lvffa)-NH2 [558 | 558]	24	3.3	14	2
TFA. H-(l-[cha]-[cha]-vl)-NH2 [1326 | 1326]	2	0.9	15	8
TFA. H-(l-[cha]-fvl)-NH2 [1322 | 1322]	1	0.2	16	3
TFA. H-(lf-[cha]-vl)-NH2 [1318 | 1318]	3	2.5	5	5
TFA. H-(lvf-[cha]-l)-NH2 [1301 | 1301]	11	3.3	8	2
TFA. H-(lvf-[p-F]f-l)-NH2 [1302 | 1302]	4	1.3	12	4
TFA.H-(l-[F5]f-[F5]f-vl)-NH2 [PPI-1328]	7	1.0	11	2
TFA.H-(l-[p-F]f-[p-F]f-vl)-NH2 [PPI-1327]	20	5.3		3
TFA.H-(lf-[F5]f-vl)-NH2 [PPI-1320]	16	5.3	10	4
TFA.H-(lf-[p-F]f-vl)-NH2 [PPI-1319]	32	34.9		11
TFA.H-(lvf-[F5]f-l)-NH2 [PPI-1303]	4	0.8	7	2
